{"source": "patent US20250009843A1", "about": "“COMPOSITIONS AND METHODS FOR TREATMENTS BY MODULATION OF EXCITABLE TISSUES ACTIVITIES, AND FOR ANTIMICROBIAL APPLICATIONS” (priority 2021, published 2025)", "tested_on": "DRG cells", "data": [{"substance": "Poly-L-arginine hydrochloride [Hydrobloc C01]", "values": [{"measurement": "Toxicity (cytotoxic / toxicity removed)", "value": "Free large (42.5"}]}]}
